Source: PubChem BioAssay (Tox21)
“And” between values parts separate entries of the source, which are not always exact repeats. Equal entries are not always repeated. The list shows a part of the results, in another mix than the full data. Inconclusive results are not listed. The source made the active and inactive calls. Unless noted, calls come from the whole dose curve; as a rule, active = well fitted curve in the direction sought with a large enough effect in the repeat runs; inconclusive = weak or mixed curves; inactive = no such curve, though single readings can be large; an effect the other way counts as inactive or inconclusive.

Sequences of proteins named here, by UniProt entry; tags and fusion partners are left off.
UniProt P19793, whole entry: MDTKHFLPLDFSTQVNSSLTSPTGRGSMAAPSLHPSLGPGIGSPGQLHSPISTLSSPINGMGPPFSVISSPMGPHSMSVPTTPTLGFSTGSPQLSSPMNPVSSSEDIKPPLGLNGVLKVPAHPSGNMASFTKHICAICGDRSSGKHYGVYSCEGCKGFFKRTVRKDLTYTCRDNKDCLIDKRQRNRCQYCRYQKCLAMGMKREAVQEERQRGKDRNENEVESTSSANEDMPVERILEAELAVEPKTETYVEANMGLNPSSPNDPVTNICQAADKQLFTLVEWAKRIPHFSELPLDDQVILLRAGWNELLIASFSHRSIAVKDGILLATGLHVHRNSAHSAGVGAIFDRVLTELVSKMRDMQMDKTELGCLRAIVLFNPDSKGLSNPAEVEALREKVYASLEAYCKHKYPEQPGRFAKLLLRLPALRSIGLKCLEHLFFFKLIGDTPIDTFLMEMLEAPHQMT
UniProt Q14994, whole entry: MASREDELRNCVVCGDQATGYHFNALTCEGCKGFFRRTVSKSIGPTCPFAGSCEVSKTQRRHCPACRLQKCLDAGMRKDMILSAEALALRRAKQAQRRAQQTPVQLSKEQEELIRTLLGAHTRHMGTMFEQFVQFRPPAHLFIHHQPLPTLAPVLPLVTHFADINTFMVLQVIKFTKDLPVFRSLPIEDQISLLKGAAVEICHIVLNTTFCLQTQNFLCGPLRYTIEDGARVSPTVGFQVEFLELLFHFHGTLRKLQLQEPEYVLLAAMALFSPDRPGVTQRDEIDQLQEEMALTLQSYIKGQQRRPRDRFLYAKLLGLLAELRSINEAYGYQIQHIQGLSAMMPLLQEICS

Experiments:
[1] = qHTS assay to identify small molecule antagonists of the vitamin D receptor (VDR) signaling pathway - cell viability counter screen (AID 743225); settings: VDR-bla HEK293T viability, CellTiter-Glo luminescence, 16 h; note: nearly all actives have a fitted effect of over 50% in size
How it was run: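 Parallel cytotoxicity test: VDR-UAS-bla HEK 293T, 3 nM (final) 1-alpha,25-dihydroxyvitamin D3 with test compound, 16 h, 37C. Endpoint is CellTiter-Glo luminescence in the same wells.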

[2] = qHTS assay to identify small molecule agonists of the NFkB signaling pathway - cell viability counter screen (AID 1159515; calls by dose curve; note: nearly all actives have a fitted effect of over 55% in size); settings: NFkB-bla ME-180 viability, CellTiter-Glo luminescence, 5 h
How it was run: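 Tox21 library compounds were tested for cytotoxicity against NFkB-bla ME-180 cells during a 5 hr exposure at 37 C. CellTiter-Glo luminescence served as the viability read-out.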

[3] = qHTS assay to identify small molecule antagonists of the retinoid-related orphan receptor gamma (ROR-gamma) signaling pathway - cell viability counter screen (AID 1159520); settings: Tet-on RORgamma CHO cells viability, ATP luminescence, 16 h; note: nearly all actives have a fitted effect of over 50% in size
How it was run: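 Cytotoxicity was read from cellular ATP (CellTiter-Glo luminescence) after 16 hr at 37 C with 1 uM doxycycline induction. The inducer was added 2 hr after compound transfer to Tet-on ROR gamma CHO cells.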

[4] = molecular target: Nuclear receptor ROR-gamma (Homo sapiens) (UniProt P51449); experiment: qHTS assay to identify small molecule antagonists of the retinoid-related orphan receptor gamma (ROR-gamma) signaling pathway (AID 1159521;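 note: CHO cells with doxycycline inducible ROR-gamma driving an RORE luciferase reporter; top concentration of the series differs between compounds; nearly all actives have a fitted effect of over 50% in size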); settings: Tet-on RORgamma CHO cells, RORE-luciferase, 16 h
[5] = qHTS assay to identify small molecule agonists of the AP-1 signaling pathway (AID 1159526; calls by dose curve); settings: ME-180 (cervical carcinoma) AP-1-bla reporter, beta-lactamase FRET ratio, 5 h
[6] = molecular target: Retinoic acid receptor RXR-alpha (Homo sapiens) (UniProt P19793); experiment: qHTS assay to identify small molecule agonists of the RXR signaling pathway (AID 1159527; calls by dose curve; note: nearly all actives have a fitted effect of over 35% in size)
How it was run: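 16 hr incubation of compound-treated RXR-alpha-UAS-bla HEK 293T cells (2% charcoal-stripped FBS, 37 C) preceded a 2 hr room-temperature LiveBLAzer FRET substrate step and blue/green fluorescence measurement.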

[7] = qHTS assay to identify small molecule antagonists of the retinoid acid receptor (RAR) signaling pathway - cell viability counter screen (AID 1159551); settings: C3RL4 cells viability, ATP luminescence (CellTiter-Glo), 6 h; note: nearly all actives have a fitted effect of over 35% in size
How it was run: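 In this counter screen, the RARE-luciferase line C3RL4 was exposed for 6 h at 37 C and 5% CO2 to compounds with retinol at 1 uM final. Cellular ATP, read by luminescence, served as the viability measure.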

[8] = qHTS assay to identify small molecule antagonists of the retinoic acid receptor (RAR) signaling pathway (AID 1159552; note: nearly all actives have a fitted effect of over 50% in size); settings: C3RL4 RARE luciferase reporter, retinol-stimulated, 6 h
How it was run: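 C3RL4 RARE-luc cells, overnight plating; retinol 1 uM final added right after compound; 6 hr 37 C; luciferase read at 30 min RT.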

[9] = qHTS assay to identify small molecule agonists of the retinoic acid receptor (RAR) signaling pathway (AID 1159553); settings: C3RL4 RARE luciferase reporter, agonist, 6 h
How it was run: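 In this cell-based screen, 1,000 C3RL4 cells per well were cultured overnight, dosed with test chemicals in DMSO for 6 hr, and assessed for RARE luciferase luminescence.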

[10] = qHTS assay to identify small molecule antagonists of the estrogen related receptor (ERR) signaling pathway from Tox21 library - cell viability counter screen (AID 1224834); settings: ERR reporter cells viability, CellTiter-Fluor, 17.5 h; note: nearly all actives have a fitted effect of over 30% in size
How it was run: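 Counter screen run in ERR cells (2,000 cells/well): cells pre-incubated 6 h, then treated with compounds for 17.5 h at 37 C. Fluorescence was read 30 min after CellTiter-Fluor addition.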

[11] = qHTS assay to identify small molecule agonists of the constitutive androstane receptor (CAR) signaling pathway - cell viability counter screen (AID 1224836); settings: HepG2-CYP2B6-hCAR viability, CellTiter-Fluor, 23 h, PK11195 added to every well; note: nearly all actives have a fitted effect of over 45% in size
How it was run: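 Using CellTiter-Fluor, viability of HepG2 cells harbouring hCAR and CYP2B6-2.2kb was measured following 23 h incubation with a 15-concentration compound series plus PK11195 (0.75 uM final).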

[12] = qHTS assay to identify small molecule antagonists of the constitutive androstane receptor (CAR) signaling pathway - cell viability counter screen (AID 1224837); settings: HepG2-CYP2B6-hCAR viability, CellTiter-Fluor, 23 h, co-treated with 50 nM CITCO; note: nearly all actives have a fitted effect of over 45% in size
How it was run: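 CITCO at 50 nM final was added alongside compounds (15 concentrations) to double-stable hCAR/CYP2B6-2.2kb HepG2 cells. Following 23 hr at 37 C, cell viability was quantified by CellTiter-Fluor fluorescence intensity.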

[13] = molecular target: Nuclear receptor subfamily 1 group I member 3 (Homo sapiens) (UniProt Q14994); experiment: qHTS assay to identify small molecule antagonists of the constitutive androstane receptor (CAR) signaling pathway (AID 1224838); settings: HepG2-CYP2B6-hCAR luciferase, CITCO-stimulated, 24 h;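 note: HepG2 cells stably expressing hCAR with CYP2B6 luciferase reporter stimulated by CITCO; nearly all actives have a fitted effect of over 40% in size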
[14] = qHTS assay to identify small molecule agonists of the endoplasmic reticulum stress response signaling pathway - cell viability counter screen (AID 1159517; calls by dose curve); settings: ESRE-bla HeLa viability, CellTiter-Glo luminescence, 5 h
How it was run: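 After overnight attachment, ESRE-bla HeLa cells were treated with Tox21 library compounds for 5 hr. CellTiter-Glo luminescence, read 30 min post-addition at room temperature, reported viability.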

[15] = at 92.4 µM (top of the series) unless noted
% is set by controls: 0 for no effect and ±100 for the full control effect.

OCCSCCO
inactive: viability change, negative = cytotoxic ([1]; at 61 µM (top of the series)) 7.47% | viability change, negative = cytotoxic ([1]; at 78.8 µM (top of the series)) -2.23% | activity, negative = cytotoxic ([2]; at 61 µM (top of the series)) -16.9% | activity, negative = cytotoxicity ([3]; at 42.5 µM (top of the series)) 6.21% | activity, negative = cytotoxicity ([3]; at 92.4 µM (top of the series)) 3.87% | activity change, negative = inhibition ([4]; at 42.5 µM (top of the series)) 4.17% | activity change, negative = inhibition ([4]; at 92.4 µM (top of the series)) -21.9% | activation ([5]; at 35.3 µM (top of the series)) -2.33% | activation ([5]; at 76.8 µM (top of the series)) 13.4% | Potency [6] | activity change, negative = cytotoxicity ([7]; at 42.5 µM (top of the series)) 5.46% | activity change, negative = cytotoxicity ([7]; at 92.4 µM (top of the series)) -0.936% | activity, negative = inhibition ([8]; at 42.5 µM (top of the series)) -0.08% | activity, negative = inhibition ([8]; at 92.4 µM (top of the series)) 110% | activation ([9]; at 73.3 µM (top of the series)) 2.03% | activation ([9]; at 94.8 µM (top of the series)) 14.8% | viability change, negative = cytotoxic ([10]; at 42.5 µM (top of the series)) 4.21% | viability change, negative = cytotoxic ([10]; at 92.4 µM (top of the series)) 0.364% | viability change, negative = cytotoxic ([11]; at 42.5 µM (top of the series)) 3.68% | viability change, negative = cytotoxic ([11]; at 92.4 µM (top of the series)) 1.89% | activity change, negative = cytotoxicity ([12]; at 42.5 µM (top of the series)) 6.26% | activity change, negative = cytotoxicity ([12]; at 92.4 µM (top of the series)) 1.14% | activity, negative = inhibition ([13]; at 42.5 µM (top of the series)) -1.01% | activity, negative = inhibition ([13]; at 92.4 µM (top of the series)) -8.61%

N=C(N)N[N+](=O)[O-]
inactive: viability change, negative = cytotoxic ([1]; at 78.8 µM (top of the series)) 14% | activity, negative = cytotoxic ([2]; at 78.8 µM (top of the series)) -3.6% | activity change, negative = cytotoxicity ([14]; at 78.8 µM (top of the series)) 15.6% | activity, negative = cytotoxicity [3, 15] 0.479% | activity change, negative = inhibition ([4]; at 92.4 µM (top of the series)) -20.9% | activation ([5]; at 76.8 µM (top of the series)) -0.686% | activity change, negative = cytotoxicity [7, 15] 0.837% | activity, negative = inhibition ([8]; at 92.4 µM (top of the series)) 45.4% | activation ([9]; at 94.8 µM (top of the series)) -0.426% | viability change, negative = cytotoxic ([10]; at 92.4 µM (top of the series)) 3.1% | viability change, negative = cytotoxic ([11]; at 92.4 µM (top of the series)) 1.63% | activity change, negative = cytotoxicity [12, 15] 3% | activity, negative = inhibition ([13]; at 92.4 µM (top of the series)) -6.42%

CCN(CC)CCCl
inactive: viability change, negative = cytotoxic ([1]; at 78.8 µM (top of the series)) 8.63% | activity, negative = cytotoxic ([2]; at 78.8 µM (top of the series)) -3.33% | activity change, negative = cytotoxicity ([14]; at 78.8 µM (top of the series)) -4.79% | activity, negative = cytotoxicity [3, 15] 6.7% | activity change, negative = inhibition ([4]; at 92.4 µM (top of the series)) -5.58% | Potency [6] | activity change, negative = cytotoxicity [7, 15] 0.559% | activity, negative = inhibition ([8]; at 92.4 µM (top of the series)) -1.06% | activation ([9]; at 94.8 µM (top of the series)) -2.49% | viability change, negative = cytotoxic ([11]; at 92.4 µM (top of the series)) 8.39% | activity change, negative = cytotoxicity [12, 15] 7.72%

O=[N+]([O-])[O-].[NH4+]
inactive: viability change, negative = cytotoxic ([1]; at 61 µM (top of the series)) 12.4% and 1.81% | activity, negative = cytotoxic ([2]; at 61 µM (top of the series)) 0.432% and 6% | activity change, negative = cytotoxicity ([14]; at 61 µM (top of the series)) -14.7% and 6.48% | activity, negative = cytotoxicity [3, 15] 0.37% and 4.57% | activation ([5]; at 76.8 µM (top of the series)) 1.2% and 0.494% | Potency [6] | activity change, negative = cytotoxicity [7, 15] -0.337% and 1.97% | activation ([9]; at 73.3 µM (top of the series)) 1.55% | viability change, negative = cytotoxic ([10]; at 92.4 µM (top of the series)) 6.79% and 0.287% | viability change, negative = cytotoxic ([11]; at 92.4 µM (top of the series)) 0.946% and -1.8% | activity change, negative = cytotoxicity [12, 15] 0.494% and 3.61%

CC(C)N(CCO)C(C)C
inactive: activity, negative = cytotoxic ([2]; at 61 µM (top of the series)) -0.829% | activity change, negative = cytotoxicity ([14]; at 61 µM (top of the series)) 13.4% | activity, negative = cytotoxicity [3, 15] 1.36% | activity change, negative = inhibition ([4]; at 92.4 µM (top of the series)) 5.63% | activation ([5]; at 76.8 µM (top of the series)) -7.87% | Potency [6] | activity change, negative = cytotoxicity [7, 15] -1.37% | activation ([9]; at 73.3 µM (top of the series)) -0.179% | viability change, negative = cytotoxic ([10]; at 92.4 µM (top of the series)) 0.493% | viability change, negative = cytotoxic ([11]; at 92.4 µM (top of the series)) -4.12% | activity change, negative = cytotoxicity [12, 15] 4.02%

CN(C)CCCl
inactive: activity, negative = cytotoxicity [3, 15] 1.5% | activity change, negative = inhibition ([4]; at 92.4 µM (top of the series)) -1.44% | activation ([5]; at 76.8 µM (top of the series)) 0.991% | activity change, negative = cytotoxicity [7, 15] 2.82% | activity, negative = inhibition ([8]; at 92.4 µM (top of the series)) 2.55% | viability change, negative = cytotoxic ([10]; at 92.4 µM (top of the series)) -0.0022% | viability change, negative = cytotoxic ([11]; at 92.4 µM (top of the series)) 2.69% | activity change, negative = cytotoxicity [12, 15] -5.05% | activity, negative = inhibition ([13]; at 92.4 µM (top of the series)) 12.1%
